{"source": "paper PMC5049785", "about": "“Characterization of Novel Antimalarial Compound ACT-451840: Preclinical Assessment of Activity and Dose–Efficacy Modeling” (PLoS Medicine, 2016)", "origin": "cited, not measured here", "tested_on": "P. falciparum strain 3D7 (MR4)", "parameters": "method as in PMID 16735432", "details": "10 x IC50; cited from earlier work"}
{"molecule": "CCN(CC)CCCC(C)Nc1ccnc2cc(Cl)ccc12", "note": "(stereo not shown) [Chloroquine, chloroquine]", "values": [{"measurement": "parasite clearance time to kill 99.9% of the initial population", "value": 32, "unit": "h"}]}
